Results on 1 substance are retold here after US6476187B1, “Methods and reagents for discovering and using mammalian melanocortin receptor agonists and antagonists to modulate feeding behavior in animals” (Oregon Health & Sciences University, priority 1992, dated 2002).

The chains behind the UniProt entries cited, without tags or fusion partners. Where a name states a change or a piece, a line headed by the entry shows the natural chain unless it says otherwise.
UniProt P32244: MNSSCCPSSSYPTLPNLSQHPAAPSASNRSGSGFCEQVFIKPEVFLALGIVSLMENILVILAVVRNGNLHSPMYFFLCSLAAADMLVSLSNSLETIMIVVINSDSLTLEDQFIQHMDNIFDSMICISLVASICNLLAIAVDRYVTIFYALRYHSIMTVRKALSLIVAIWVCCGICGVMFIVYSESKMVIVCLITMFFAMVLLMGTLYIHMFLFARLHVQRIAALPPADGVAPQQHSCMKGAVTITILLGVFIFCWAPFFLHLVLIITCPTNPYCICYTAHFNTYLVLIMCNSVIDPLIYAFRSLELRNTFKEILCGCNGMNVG

This assay concerns the target T1, rat MC3-R (Rattus norvegicus, UniProt P32244).
T1 construct: The entire coding region of the MC-3 receptor cDNA insert; expressed in transfected cells; host or cells: human 293 cells, pcDNA/neo I, G418-selected
The assay can be described thus: intracellular cAMP production in 293 cells expressing MC3-R. Format: cell-based. Conditions: 1 h at 37° C. The procedure: cAMP production assays as described above were also used to analyze expression of MC3-R in cells transfected with the expression vectors described herein as follows. Cells (˜5×10^6) were plated in 6-well dishes, washed once with DMEM containing 1% bovine serum albumin (BSA) and 0.5 mM IBMX (a phosphodiesterase inhibitor), then incubated for 1 h at 37° C. with varying concentrations of the melanotropic peptides αMSH, γ3MSH, γMSH, the MSH peptide analogues Nle^4-D-Phe^7-αMSH (NDP-MSH), ACTH4-10 and ACTH1-39. Following hormone treatment, the cells were washed twice with phosphate buffered saline and intracellular cAMP extracted by lysing the cells with 1 mL of 60% ethanol. Intracellular cAMP concentrations were determined using an assay which measures the ability of cAMP to displace [8-^3H] cAMP from a high affinity cAMP binding protein (see Gilman, 1979, Proc. Natl. Acad. Sci. USA 67: 305-312).
The abscissa indicates the concentration of each hormone and the ordinate indicates the percentage of basal intracellular cAMP concentration achieved by each treatment. […] None of the peptides tested induced any change in intracellular cAMP in cells containing the vector alone. Cells expressing rat MC3-R responded strongly to every melanotropic peptide containing the MSH code sequence His-Phe-Arg-Trp, with up to a 60-fold elevation of intracellular cAMP levels.
For orientation: Changes in cAMP serve as a functional read-out for many G protein-coupled receptors.

What is called EC50 is the concentration needed to bring the measured effect to its halfway point. A lower EC50 goes with a more potent agent.

Turning to “α-melanocyte stimulating hormone [α-MSH]”, the 50% effective concentration (EC50) was determined as 4 nM.
